# Experimental data taken from PubChem BioAssay (Tox21).
# This is a selection; strong and weak results do not stand in their true shares. Records with an inconclusive call do not appear. Where a call stands in place of a potency, no number is given. Calls of active or inactive are those of the source. Calls follow the shape of the dose curve; as a rule, active = well fitted cell-killing curve with a large enough effect in the repeat runs; inconclusive = weak or mixed curves, or effect the other way; inactive = no such curve, though single readings can be large or run the other way.
# Test: Caspase-3/7 induction in CHO-K1 cells by small molecules, qHTS cell viability counter screen (AID 1346979); also: nearly all actives have a fitted effect of over 35% in size
# Settings: CellTiter-Fluor fluorescence, 17 h; series mostly up to 92.4 µM
# From the text: National Center for Advancing Translational Sciences [NCATS]
# NIH Chemical Genomics Center [NCGC]
# U.S. Environmental Protection Agency [EPA]
# National Institutes of Environmental Health Sciences [NIEHS]
# National Toxicology Program [NTP]
# U.S. Food and Drug Administration [FDA]
# Apoptosis is a process of programmed cell death and plays a central role in the development of multicellular organisms. It is a highly regulated process and induces cell death by activating caspases, which are the members of cysteine aspartic acid-specific protease (caspase) family. Caspases involved in apoptosis are classified by their mechanism of action as initiator caspases (caspase-2, -8, -9 and -10) and executioner caspases (caspase-3, -6, and -7). Inhibition of apoptosis results in number of cancers, autoimmune diseases, inflammatory diseases and viral infection. To identify small molecule compounds that induce apoptosis, a homogeneous, luminescent Caspase-Glo 3/7 assay was used. Wild type CHO-K1 cells were used to screen Tox21 libraries for identifying caspase-3/7 activity inducers. Also cytotoxicity of the compounds was tested in parallel by measuring the cell viability using CellTiter-Fluor assay system in the same wells.
# Tox21 Assay Protocol Summary:
# CHO-K1 cells were dispensed at 1,500 per well in 5uL of culture medium into white solid bottom 1536-well plates (Corning Life Sciences, Corning, NY) using a Multidrop Combi (Thermo Scientific, Waltham, MA) dispenser. The assay plates were incubated at 37 C and 5% CO2 for 5hr, and then 23nL of compounds dissolved in DMSO and positive control were transferred using a Pintool station (Wako, San Diego, CA). The assay plates were incubated at 37C and 5% CO2 for 17hr. For cytotoxicity read, after 16hr incubation at 37C, 1uL CellTiter-Fluor reagent (Promega Corporation, Madison, WI) was added to each well of the assay plates using Flying Reagent Dispenser (FRD, Aurora Discovery, San Diego, CA). After 1hr incubation at 37C and 5% CO2, the fluorescence signal was quantified using a ViewLux plate reader (PerkinElmer, Shelton, CT).
# Potency is read from the fitted curve at half-maximal effect.
SMILES,Potency,"activity change, negative = cytotoxicity"
O=P(Cl)(Oc1ccccc1)Oc1ccccc1,inactive,–
CCCCO[P+](=O)OCCCC,inactive,–
CCOC(=O)Cl,inactive,–
CN(C(=O)Cc1ccc(Cl)c(Cl)c1)[C@H]1CC[C@@]2(CCCO2)C[C@@H]1N1CCCC1,inactive,–
CCOP(=S)(CC)Sc1ccccc1 (stereo not given),inactive,–
COC(=O)Cl,inactive,–
CCCCOP(OCCCC)OCCCC,inactive,–
O=[N+]([O-])c1ccc(S(=O)(=O)O)c([N+](=O)[O-])c1,inactive,–
O=[P+](Oc1ccccc1)Oc1ccccc1,inactive,–
COP(=S)(Cl)OC,inactive,–
O=C(Cl)Oc1ccccc1,inactive,–
CN(C(=O)Cc1cccc2occc12)[C@H]1CC[C@@]2(CCCO2)C[C@@H]1N1CCCC1,inactive,–
CC(C)CCCCCCCOP(OCCCCCCCC(C)C)Oc1ccccc1,inactive,–
CCCCC(CC)CO[P+](=O)OCC(CC)CCCC (stereo not given),inactive,–
ClP(Cl)c1ccccc1,inactive,–
CCNC(C)Cc1ccc2c(c1)OCO2 (stereo not given),inactive,–
O=[As]c1ccccc1 (stereo not given),active: 68.6 nM,–
O=C(Cl)OCCOC(=O)Cl,inactive,–
CCC(C)(OOC(C)(C)C)OOC(C)(C)C,–,inactive: 6.16% [at 19 µM]
NC(=O)Nc1ccc([As](=O)(O)O)cc1,inactive,–
